Patent US6943183B2 (Pfizer Inc, priority 2000, dated 2005)

The chains behind the UniProt entries cited, without tags or fusion partners.
UniProt Q02293, whole entry: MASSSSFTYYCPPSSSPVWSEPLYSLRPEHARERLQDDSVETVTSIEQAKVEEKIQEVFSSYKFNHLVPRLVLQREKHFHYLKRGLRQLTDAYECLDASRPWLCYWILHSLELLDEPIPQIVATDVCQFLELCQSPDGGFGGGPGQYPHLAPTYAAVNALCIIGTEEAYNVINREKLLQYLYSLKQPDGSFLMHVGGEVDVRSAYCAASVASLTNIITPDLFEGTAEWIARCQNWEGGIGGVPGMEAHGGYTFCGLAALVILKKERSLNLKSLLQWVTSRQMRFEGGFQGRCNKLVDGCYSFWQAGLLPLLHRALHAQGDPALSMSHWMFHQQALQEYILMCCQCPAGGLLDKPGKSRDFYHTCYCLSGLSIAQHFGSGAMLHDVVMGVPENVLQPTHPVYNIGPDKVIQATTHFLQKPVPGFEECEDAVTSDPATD

Biological target: SF9 affinity purified rat FPT (Rattus norvegicus, UniProt Q02293+Q04631)
Test: PFT (FPT) inhibitory activity assay, radiolabeled farnesyl pyrophosphate and biotinyl peptide, streptavidin beads
Settings: read-out: FTase IC50 nM; HEPES buffer pH 7.4, 30° C., 30 minutes

| Structure (SMILES) | IC50 [nM] |
| --- | --- |
| CC(=O)Nc1ccc(SCc2c(O[C@H](Cn3ccnc3)c3ccccc3)ccc3c2CCCC3=O)cc1 | 3 |
| O=C1CCCc2c1ccc(O[C@H](Cn1ccnc1)c1ccccc1)c2CSc1ccc2ccccc2c1 | 8 |
| COC(=O)CCSCc1c(O[C@H](Cn2ccnc2)c2ccccc2)ccc2c1CCCC2=O | 4 |
| CC(C)Oc1ccccc1OCc1c(O[C@H](Cn2ccnc2)c2ccccc2)ccc2c1CCCC2=O | 1 |
